Experimental findings from patent publication US20260384443A1, “THIADIAZOLES AS GLUTAMINASE I INHIBITORS” (published 2026) are described below.

Amino acid sequences for entries named in this document (tags omitted). Residues count along the entry.
UniProt O94925, 55-669 limits assumed: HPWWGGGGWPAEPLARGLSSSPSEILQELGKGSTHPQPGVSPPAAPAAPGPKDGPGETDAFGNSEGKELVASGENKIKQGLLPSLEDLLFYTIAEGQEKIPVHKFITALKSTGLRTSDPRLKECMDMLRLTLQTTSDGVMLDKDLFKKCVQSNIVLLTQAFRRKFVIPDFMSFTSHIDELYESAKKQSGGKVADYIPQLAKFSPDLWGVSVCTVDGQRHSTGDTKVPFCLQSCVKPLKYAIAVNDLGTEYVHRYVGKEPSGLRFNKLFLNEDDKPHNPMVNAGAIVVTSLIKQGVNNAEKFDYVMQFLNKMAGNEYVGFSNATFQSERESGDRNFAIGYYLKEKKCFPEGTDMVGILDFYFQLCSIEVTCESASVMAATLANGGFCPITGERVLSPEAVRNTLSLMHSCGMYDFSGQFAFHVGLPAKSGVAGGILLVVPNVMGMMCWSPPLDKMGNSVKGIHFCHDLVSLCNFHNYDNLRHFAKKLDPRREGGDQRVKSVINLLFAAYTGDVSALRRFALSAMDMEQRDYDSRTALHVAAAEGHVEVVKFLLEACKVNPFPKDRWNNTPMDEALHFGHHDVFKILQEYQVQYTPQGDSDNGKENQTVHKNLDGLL
UniProt O94925, 73-669 limits assumed: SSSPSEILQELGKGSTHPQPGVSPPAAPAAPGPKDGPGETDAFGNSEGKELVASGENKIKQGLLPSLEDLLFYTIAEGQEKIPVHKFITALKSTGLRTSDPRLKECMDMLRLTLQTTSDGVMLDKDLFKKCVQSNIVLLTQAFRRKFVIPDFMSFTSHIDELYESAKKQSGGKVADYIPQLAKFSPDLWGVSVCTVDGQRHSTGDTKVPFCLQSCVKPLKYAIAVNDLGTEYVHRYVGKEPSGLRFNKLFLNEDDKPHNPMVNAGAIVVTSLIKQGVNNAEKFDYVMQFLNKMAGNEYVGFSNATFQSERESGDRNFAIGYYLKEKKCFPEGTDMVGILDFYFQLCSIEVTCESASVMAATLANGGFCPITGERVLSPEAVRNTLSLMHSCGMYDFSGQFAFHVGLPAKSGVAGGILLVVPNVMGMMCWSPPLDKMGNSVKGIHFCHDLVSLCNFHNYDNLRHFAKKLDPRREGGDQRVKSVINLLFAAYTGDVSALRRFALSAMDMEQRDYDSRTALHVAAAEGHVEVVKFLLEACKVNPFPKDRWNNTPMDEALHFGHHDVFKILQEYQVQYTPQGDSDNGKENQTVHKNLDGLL

Assay [1] concerns the target T1, GLS1 (Homo sapiens, UniProt O94925). Description: GLS1 cell assay: intracellular glutamate level in A549 cells (Glutamine/Glutamate-Glo). The conditions noted are these: read-out: Cell IC50, 2 h compound pre-incubation, then 24 h with L-Gln.
In assay [2] the target is T1, GLS1. Description: GLS1 enzymatic assay (three-stage coupled endpoint assay: GLS1/GDH/diaphorase, resorufin fluorescence). To be noted: read-out: Enzyme IC50.

As a reminder, the IC50 is the concentration at which inhibition is half-maximal. In the case of `CC1(C)CCC(CN2CC3(CO[C@@H](CC(=O)Nc4nnc(N[C@@H]5CCN(c6cccnn6)C5)s4)C3)C2)CC1` (single isomer, unassigned) [Example 98], the IC50 at GLS1 [1] worked out at 51.7 nM; at GLS1 [2], 39.3 nM.
The matching figures for `Cc1cc(C)nc(CN2CCC3(CCC(CC(=O)Nc4nnc(N[C@@H]5CCN(c6cccnn6)C5)s4)CC3)CC2)c1`: 35.7 nM and 39.2 nM.
The matching figures for `O=C(Nc1nnc(N[C@@H]2CCN(c3cccnn3)C2)s1)[C@H]1CCCN(Cc2ccc(OC(F)(F)F)cc2)C1`: 24.8 nM and 107 nM.
The like results for `O=C(CC1CCN(Cc2ccccc2OC(F)F)CC1)Nc1nnc(N[C@@H]2CCN(c3cccnn3)C2)s1` were, in that order, 64 nM and 34.4 nM.
Regarding `Cc1cc(CN2CCC(CC(=O)Nc3nnc(N[C@@H]4CCN(c5cccnn5)C4)s3)CC2)ccc1C(F)(F)F`, the IC50 was determined as 4.1 nM at GLS1 [1] and 49.4 nM at GLS1 [2].
The matching figures for `CCC1(CC)CCC(N2CCO[C@H](CC(=O)Nc3nnc(N[C@@H]4CCN(c5cccnn5)C4)s3)C2)CC1` (single isomer, unassigned) [Example 147]: 6.2 nM and 19.2 nM.
Turning to `CC1(C)CCC(N2CCO[C@@H](CC(=O)Nc3nnc(N[C@@H]4CCN(c5ccc(Cl)nn5)C4)s3)C2)CC1` (single isomer, unassigned) [Example 283], the IC50 was 11.7 nM at GLS1 [1] and 47.2 nM at GLS1 [2].
Take `O=C(CC1CN(C2CC3(CCCCC3)C2)CCO1)Nc1nnc(N[C@@H]2CCN(c3cccnn3)C2)s1` (stereo partly shown): the IC50 on GLS1 [1] was 1.7 nM; at GLS1 [2], 20 nM.
For `O=C(CC1CCC2(CC1)CCN(Cc1cc(Br)ccn1)CC2)Nc1nnc(N[C@@H]2CCN(c3cccnn3)C2)s1`, the IC50 on GLS1 [1] came to 7.4 nM; on GLS1 [2] it was 16.2 nM.
The like results for `Cc1ccc([C@H](C)N2CCC[C@@H](CC(=O)Nc3nnc(N[C@@H]4CCN(c5cccnn5)C4)s3)C2)cc1F` (single isomer, unassigned) [Example 260] were, in that order, 12.2 nM and 34.1 nM.
`CN(c1nnc(NC(=O)C[C@@H]2CCCN(Cc3cc(F)cc(F)c3)C2)s1)[C@@H]1CCN(c2cccnn2)C1`: the 50% inhibitory concentration (IC50) at GLS1 [1] came to 22.4 nM; on GLS1 [2] it was 51.4 nM.
Take `O=C(CC1CN(C2CCCCC2)CCC1(F)F)Nc1nnc(N[C@@H]2CCN(c3cccnn3)C2)s1` (stereo partly shown): the IC50 was 5.9 nM on GLS1 [1] and 15.5 nM at GLS1 [2].
The matching figures for `CCOc1cc(CN2CCC[C@@H](CC(=O)Nc3nnc(N[C@@H]4CCN(c5cccnn5)C4)s3)C2)cc(F)c1F`: 5.5 nM and 14 nM.
Turning to `COC(C(=O)Nc1nnc(N[C@@H]2CCN(c3cccnn3)C2)s1)C1CCN(Cc2ccc(OC(F)(F)F)cc2)CC1` (stereo partly shown), the IC50 on GLS1 [1] was determined as 2.5 nM; on GLS1 [2], 82.5 nM.
Take `CC(C)Sc1ccccc1CN1CC2(CO[C@@H](CC(=O)Nc3nnc(N[C@@H]4CCN(c5cccnn5)C4)s3)C2)C1` (single isomer, unassigned) [Example 215]: the IC50 is 3.2 nM on GLS1 [1] and 17.7 nM at GLS1 [2].
As for `O=C(C[C@@H]1CCCN(Cc2cc(F)cc(F)c2)C1)Nc1nnc(N[C@@H]2CCN(c3ccc(Cl)nn3)C2)s1`, the IC50 came out at 12.1 nM on GLS1 [1] and 65.4 nM on GLS1 [2].
The matching figures for `CN(CC1CCC(C)(C)CC1)C1(CC(=O)Nc2nnc(N[C@@H]3CCN(c4cccnn4)C3)s2)CC1`: 2 nM and 82.7 nM.
The matching figures for `O=C(CN1CCN(Cc2ccc(OC(F)(F)F)cc2)CC1)Nc1nnc(N[C@@H]2CCN(c3cccnn3)C2)s1`: 1.6 nM and 52.7 nM.
Regarding `Cc1cc(CN2CCC[C@@H](CC(=O)Nc3nnc(N[C@@H]4CCN(c5cccnn5)C4)s3)C2)cc(OC(F)F)c1`, the results for the IC50 on GLS1 [1] and at GLS1 [2] were 6.1 nM and 21.4 nM, respectively.
Consider `O=C(CC1CC2(CO1)CN(Cc1cccc(OC(F)(F)F)c1)C2)Nc1nnc(N[C@@H]2CCN(c3cccnn3)C2)s1` (stereo partly shown), for which the IC50 on GLS1 [1] was determined as 5.5 nM; at GLS1 [2] it was 23.2 nM.
The like results for `CC(C)Sc1ccccc1CN1CCC(OCC(=O)Nc2nnc(N[C@@H]3CCN(c4cccnn4)C3)s2)CC1` were, in that order, 1.7 nM and 40.3 nM.
The matching figures for `CN1CCN(C2CCC(C)(C)CC2)C[C@H]1CC(=O)Nc1nnc(N[C@@H]2CCN(c3cccnn3)C2)s1` (single isomer, unassigned) [Example 287]: 48 nM and 53.5 nM.
As to `O=C(C[C@H]1CN(C2CC3(CCCCC3)C2)CCO1)Nc1nnc(N[C@@H]2CCN(c3cccnn3)C2)s1` (single isomer, unassigned) [Example 255], the IC50 on GLS1 [1] turned out to be 5.7 nM; at GLS1 [2] it was 26.6 nM.
The matching figures for `O=C(CC1CN(C2CCCCCC2)CCC1(F)F)Nc1nnc(N[C@@H]2CCN(c3cccnn3)C2)s1` (stereo partly shown): 2.4 nM and 13.1 nM.
The matching figures for `Cc1cc(F)cc(CN2CC3(CCN(CC(=O)Nc4nnc(N[C@@H]5CCN(c6cccnn6)C5)s4)C3)C2)c1`: 15 nM and 24.1 nM.
The matching figures for `CN1CCN(CC2CCC(C)(C)CC2)C[C@H]1CC(=O)Nc1nnc(N[C@@H]2CCN(c3cccnn3)C2)s1` (single isomer, unassigned) [Example 280]: 9.4 nM and 25.9 nM.
Take `O=C(C[C@@H]1COCCN1C1CCCCC1)Nc1nnc(N[C@@H]2CCN(c3cccnn3)C2)s1` (single isomer, unassigned) [Example 228]: the IC50 was determined as 27.7 nM at GLS1 [1] and 37.1 nM at GLS1 [2].
For the compound `CCc1oc2ccccc2c1CN1CCC[C@@H](CC(=O)Nc2nnc(N[C@@H]3CCN(c4cccnn4)C3)s2)C1`, the figures for the concentration for half-maximal inhibition (IC50) at GLS1 [1] and on GLS1 [2] were 9.3 nM and 178 nM, respectively.
For the compound `CN1CCN(C2CCC(C)(C)CC2)CC1CC(=O)Nc1nnc(N[C@@H]2CCN(c3cccnn3)C2)s1` (stereo partly shown), the IC50 at GLS1 [1] came to 84.2 nM; on GLS1 [2] it was 74 nM.
The like results for `CC(C)Oc1ccccc1CN1CCC(CC(=O)Nc2nnc(N[C@@H]3CCN(c4cccnn4)C3)s2)CC1` were, in that order, 81.6 nM and 55.6 nM.
Consider `CC[C@@H](C(=O)Nc1nnc(N[C@@H]2CCN(c3cccnn3)C2)s1)C1CCN(Cc2ccccc2OC(C)C)CC1` (single isomer, unassigned) [Example 208], for which the IC50 at GLS1 [1] was found to be 83.5 nM; at GLS1 [2], 58.6 nM.
As for `COc1ccc(CN2CCC(CC(=O)Nc3nnc(N[C@@H]4CCN(c5cccnn5)C4)s3)CC2)nc1C(F)(F)F`, the IC50 at GLS1 [1] was 31.5 nM; at GLS1 [2], 19.9 nM.
For the compound `O=C(Nc1nnc(N[C@@H]2CCN(c3cccnn3)C2)s1)C1CC2(CCN(Cc3ccccc3OC3CCC3)CC2)CO1` (stereo partly shown), the IC50 on GLS1 [1] amounted to 6.4 nM; at GLS1 [2] it was 53.4 nM.
The like results for `C[C@@H](C(=O)Nc1nnc(N[C@@H]2CCN(c3cccnn3)C2)s1)C1CCN(Cc2ccc(OC(F)(F)F)cc2)CC1` (single isomer, unassigned) [Example 23] were, in that order, 7.9 nM and 145 nM.
With `O=C(Nc1nnc(N[C@@H]2CCN(c3cccnn3)C2)s1)C1CC2(CCN(Cc3cccc(OC(F)(F)F)c3)CC2)CO1` (stereo partly shown), the IC50 turned out to be 1.6 nM on GLS1 [1] and 65.3 nM at GLS1 [2].
For `Cc1ccc(OC(F)F)c(CN2CCC(CC(=O)Nc3nnc(N[C@@H]4CCN(c5cccnn5)C4)s3)CC2)c1`, the IC50 was 19.9 nM at GLS1 [1] and 55.8 nM on GLS1 [2].
The matching figures for `CC(C)Oc1ccccc1CN1CC2(CC(SCC(=O)Nc3nnc(N[C@@H]4CCN(c5cccnn5)C4)s3)C2)C1`: 40.4 nM and 19.4 nM.
The matching figures for `O=C(CC1CC2(CCN(Cc3cccc(OC(F)(F)F)c3)C2)C1)Nc1nnc(N[C@@H]2CCN(c3cccnn3)C2)s1` (stereo partly shown): 5.9 nM and 134 nM.
The matching figures for `CCC(SC1CCN(Cc2ccccc2OC(C)C)CC1)C(=O)Nc1nnc(N[C@@H]2CCN(c3cccnn3)C2)s1` (stereo partly shown): 8.6 nM and 64.7 nM.
Consider `Cc1ccc([C@H](C)N2CCC[C@@H](CC(=O)Nc3nnc(N[C@@H]4CCN(c5cccnn5)C4)s3)C2)c(F)c1` (single isomer, unassigned) [Example 264], for which the figures for the IC50 on GLS1 [1] and at GLS1 [2] were 5.1 nM and 22.6 nM, respectively.
For `CC(C)Oc1ccccc1CN1CCC(SCC(=O)Nc2nnc(N[C@@H]3CCN(c4cccnn4)C3)s2)CC1`, the figures for the IC50 at GLS1 [1] and on GLS1 [2] were 2.3 nM and 17.7 nM, respectively.
The matching figures for `CC(C)Oc1cccc(CN2CCC(CC(=O)Nc3nnc(N[C@@H]4CCN(c5cccnn5)C4)s3)CC2)c1`: 14.1 nM and 34.6 nM.
The like results for `Cc1cc(CN2CCC[C@@H](CC(=O)Nc3nnc(N[C@@H]4CCN(c5cccnn5)C4)s3)C2)c(C)s1` were, in that order, 23.6 nM and 29.7 nM.
The matching figures for `C[C@H](c1cc(F)cc(F)c1)N1CCC[C@@H](CC(=O)Nc2nnc(N[C@@H]3CCN(c4cccnn4)C3)s2)C1` (single isomer, unassigned) [Example 242]: 3.6 nM and 27.4 nM.
Turning to `O=C(C[C@H]1C[C@@]2(CCN(Cc3cccc(OC(F)(F)F)c3)C2)C1)Nc1nnc(N[C@@H]2CCN(c3cccnn3)C2)s1` (single isomer, unassigned) [Example 188], the IC50 on GLS1 [1] came to 4.8 nM; at GLS1 [2], 62.9 nM.
In the case of `CC(C)Sc1ccccc1CN1CC2(CCN(CC(=O)Nc3nnc(N[C@@H]4CCN(c5cccnn5)C4)s3)C2)C1`, the IC50 at GLS1 [1] turned out to be 3.5 nM; on GLS1 [2], 15.8 nM.
The matching figures for `Cc1cc(C)cc(CN2CCC[C@@H](CC(=O)Nc3nnc(N[C@@H]4CCN(c5cccnn5)C4)s3)C2)c1`: 18.1 nM and 37.5 nM.
Take `CC1(C)CC(N2CCN(CC(=O)Nc3nnc(N[C@@H]4CCN(c5cccnn5)C4)s3)CC2)CC(C)(C)C1`: the half-inhibitory concentration (IC50) was 12.6 nM at GLS1 [1] and 53.8 nM at GLS1 [2].
The matching figures for `O=C(C[C@@H]1CCCN(Cc2ccc(OC(F)(F)F)cc2)C1)Nc1nnc(N[C@@H]2CCN(c3cccnn3)C2)s1`: 5.4 nM and 23.7 nM.
Consider `CN(c1nnc(NC(=O)CC2CN(C3CCC(C)(C)CC3)CCO2)s1)[C@@H]1CCN(c2cccnn2)C1` (stereo partly shown), for which the results for the IC50 on GLS1 [1] and at GLS1 [2] were 52.7 nM and 236 nM, respectively.
